## Ab-14 light chain CDR variants: yeast mating affinities

Source: Engelhart et al. 2022 (doi:10.1038/s41597-022-01779-4), MIT Lincoln Laboratory and A-Alpha Bio; data file from the FLAb repository.

Target peptide (SARS-CoV-2 spike, HR2 region): PDVDLGDISGINAS

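The starting antibody came from a phage panning campaign against this peptide. Library AAYL50 holds single substitutions and randomly drawn double and triple substitutions in the CDRs. In AlphaSeq, yeast of one mating type display the scFv and yeast of the other type display the target. Pairs that bind mate more often; barcode pairs of the diploids are counted by sequencing. Read counts were normalised to the haploid input and turned into Kd by a linear fit to BCL2-family pairs of known affinity, for each replicate. Each pool was mated in three replicate cultures.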

Each scFv is VH, a (GGGGS)3 linker, VL, as in the parent Ab-14, and differs from it in the CDRs of the light chain only.
VH: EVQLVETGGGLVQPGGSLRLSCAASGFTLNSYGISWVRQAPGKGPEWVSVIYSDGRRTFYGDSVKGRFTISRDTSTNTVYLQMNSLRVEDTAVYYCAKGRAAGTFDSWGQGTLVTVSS
VL: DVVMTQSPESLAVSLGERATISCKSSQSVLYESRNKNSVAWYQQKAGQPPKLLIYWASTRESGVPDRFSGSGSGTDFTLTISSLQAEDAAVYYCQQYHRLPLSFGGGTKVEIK

Each variant's VL is given in full.
Numbers give log10(Kd / nM), so 0 is 1 nM and 3 is 1 µM. Smaller is tighter.
A mean of the replicates is given; it leaves out those without a signal.
An entry "nd" has no value in the source: the pair was not observed among the diploids in that replicate. This suggests poor binding but is not conclusive.

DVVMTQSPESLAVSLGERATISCKSSQSVLYESRNKNSVAWYQQKAGQPPKLLIYWASTRESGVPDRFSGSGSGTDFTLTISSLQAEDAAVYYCQQYCRWPLSFGGGTKVEIK: 3.45, nd, nd (controls 0 of 9).
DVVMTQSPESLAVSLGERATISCKSSQSVLYEERNKNSVAWYQQKAGQPPKLLIYEVSTRESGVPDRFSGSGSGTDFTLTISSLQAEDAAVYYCQQYHRLPLSFGGGTKVEIK: -0.13, 0.15, -0.03 (mean -0.01; controls 2 of 9).
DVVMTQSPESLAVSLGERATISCKSSQSVLYESYNKNSVAWYQQKAGQPPKLLIYWAHDRESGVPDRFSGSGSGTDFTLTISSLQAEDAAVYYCQQYHRLPLSFGGGTKVEIK: 1.97, 0.70, 0.76 (mean 1.14; controls 0 of 9).
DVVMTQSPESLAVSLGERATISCKSGQSVLYESRNKNSVAWYQQKAGQPPKLLIYWASTRESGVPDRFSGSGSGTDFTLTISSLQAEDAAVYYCHQYHRLPLPFGGGTKVEIK: nd, nd, nd (controls 2 of 9).
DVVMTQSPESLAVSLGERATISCKSSQSVLYESRKKNSVAWYQQKAGQPPKLLIYWISTRESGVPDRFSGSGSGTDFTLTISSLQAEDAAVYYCQQYSRLPLSFGGGTKVEIK: nd, nd, nd (controls 6 of 9).
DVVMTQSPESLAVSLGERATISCKSSQSVLYEQRNLNSVAWYQQKAGQPPKLLIYWASTRESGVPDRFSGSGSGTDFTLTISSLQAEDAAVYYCQYYHRLPLSFGGGTKVEIK: 2.21, 2.15, 2.29 (mean 2.22; controls 1 of 9).
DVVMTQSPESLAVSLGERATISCKSSVSVLHESRNKNSVAWYQQKAGQPPKLLIYWASTRESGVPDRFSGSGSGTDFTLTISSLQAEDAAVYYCQQLHRLPLSFGGGTKVEIK: 4.62, 3.57, nd (mean 4.10; controls 0 of 9).
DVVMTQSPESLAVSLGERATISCMSSQSVLYESRNWNSVAWYQQKAGQPPKLLIYWASTRESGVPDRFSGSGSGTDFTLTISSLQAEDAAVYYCQVYHRLPLSFGGGTKVEIK: 3.24, 1.89, 3.50 (mean 2.87; controls 0 of 9).
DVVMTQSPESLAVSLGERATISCKSSQSVLYESRNKNSVFWYQQKAGQPPKLLIYWASTRESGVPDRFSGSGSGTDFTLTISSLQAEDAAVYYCQQIHRLPGSFGGGTKVEIK: nd, nd, nd (controls 4 of 9).
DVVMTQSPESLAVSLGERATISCKSSQSVLYESRNKNSVKWYQQKAGQPPKLLIYWHSTREKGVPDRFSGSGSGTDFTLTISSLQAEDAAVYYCQQYHRLPLSFGGGTKVEIK: nd, nd, 5.47 (controls 3 of 9).
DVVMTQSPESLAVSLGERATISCKSWQSVLIYSRNKNSVAWYQQKAGQPPKLLIYWASTRESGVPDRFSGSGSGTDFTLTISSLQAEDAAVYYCQQYHRLPLSFGGGTKVEIK: 4.31, nd, 5.71 (mean 5.01; controls 8 of 9).
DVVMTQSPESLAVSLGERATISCKSSQSVLYEIRPKNSVAWYQQKAGQPPKLLIYWASGRESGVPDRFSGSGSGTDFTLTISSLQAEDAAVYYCQQYHRLPLSFGGGTKVEIK: nd, nd, nd (controls 2 of 9).
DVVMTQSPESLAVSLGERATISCKSSQSVLYISRNKNMVAWYQQKAGQPPKLLIYWASTRESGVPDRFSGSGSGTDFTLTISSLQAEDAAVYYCQQYHGLPLSFGGGTKVEIK: nd, nd, nd (controls 2 of 9).
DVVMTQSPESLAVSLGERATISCKSSQSVLWESRMKNSVAWYQQKAGQPPKLLIYWASTRESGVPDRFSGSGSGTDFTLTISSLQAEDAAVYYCQQWHRLPLSFGGGTKVEIK: 1.47, 1.61, 1.69 (mean 1.59; controls 6 of 9).
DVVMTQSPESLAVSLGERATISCKSSQSVLYESRNKNSVAWYQQKAGQPPKLLIYWASTREWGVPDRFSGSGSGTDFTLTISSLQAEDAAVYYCQMYHRLPVSFGGGTKVEIK: nd, nd, nd (controls 0 of 9).
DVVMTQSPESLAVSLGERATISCKSSQSVLYESANKNSVPWYQQKAGQPPKLLIYWASTRESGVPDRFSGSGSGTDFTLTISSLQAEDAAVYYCQQYQRLPLSFGGGTKVEIK: 4.58, nd, nd (controls 0 of 9).
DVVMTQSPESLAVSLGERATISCKSIQSVLYESRNKNSTAWYQQKAGQPPKLLIYWASRRESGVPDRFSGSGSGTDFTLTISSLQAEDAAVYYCQQYHRLPLSFGGGTKVEIK: nd, nd, nd (controls 0 of 9).
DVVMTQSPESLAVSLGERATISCKSSQPVLYESNNNNSVAWYQQKAGQPPKLLIYWASTRESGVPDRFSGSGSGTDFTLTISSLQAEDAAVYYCQQYHRLPLSFGGGTKVEIK: 1.31, 1.51, 1.48 (mean 1.43; controls 7 of 9).
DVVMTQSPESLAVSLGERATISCKSSQVVLYESRNKNSVAWYQQKAGQPPKLLIYCASTRESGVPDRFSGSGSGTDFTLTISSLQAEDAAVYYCQQCHRLPLSFGGGTKVEIK: 2.36, 2.12, 1.89 (mean 2.12; controls 0 of 9).
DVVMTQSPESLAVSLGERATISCKSSQSVLYESRNKNSVAWYQQKAGQPPKLLIYWASTREQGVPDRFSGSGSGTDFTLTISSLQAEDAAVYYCQQYHYHPLSFGGGTKVEIK: 5.12, 4.78, 3.44 (mean 4.45; controls 3 of 9).
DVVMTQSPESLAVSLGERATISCKSSQSVLEEHRNKNSVAWYQQKAGQPPKLLIYWASTSESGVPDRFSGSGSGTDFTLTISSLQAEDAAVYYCQQYHRLPLSFGGGTKVEIK: nd, 3.15, nd (controls 0 of 9).
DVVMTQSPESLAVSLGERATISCKSSQSVGYESRNKNSLAWYQQKAGQPPKLLIYWASTRERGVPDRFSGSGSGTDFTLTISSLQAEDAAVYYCQQYHRLPLSFGGGTKVEIK: 1.75, 1.91, 1.87 (mean 1.85; controls 6 of 9).
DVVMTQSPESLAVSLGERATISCKSSQSVHYESRNKNSVAWYQQKAGQPPKLLIYWASRRESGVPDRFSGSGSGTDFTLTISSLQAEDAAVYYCQYYHRLPLSFGGGTKVEIK: nd, nd, 4.69 (controls 4 of 9).

Top 4 of the variants detected in all replicates, tightest first:

VL	log10 Kd, replicates	log10 Kd (nM), mean	signal with controls
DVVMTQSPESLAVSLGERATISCKSSQSVLYEERNKNSVAWYQQKAGQPPKLLIYEVSTRESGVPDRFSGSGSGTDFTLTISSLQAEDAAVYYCQQYHRLPLSFGGGTKVEIK	-0.13, 0.15, -0.03	-0.01	2 of 9
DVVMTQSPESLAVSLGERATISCKSSQSVLYESYNKNSVAWYQQKAGQPPKLLIYWAHDRESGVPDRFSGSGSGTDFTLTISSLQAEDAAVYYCQQYHRLPLSFGGGTKVEIK	1.97, 0.70, 0.76	1.14	0 of 9
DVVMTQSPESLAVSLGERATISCKSSQPVLYESNNNNSVAWYQQKAGQPPKLLIYWASTRESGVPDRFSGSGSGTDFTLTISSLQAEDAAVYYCQQYHRLPLSFGGGTKVEIK	1.31, 1.51, 1.48	1.43	7 of 9
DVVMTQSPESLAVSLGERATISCKSSQSVLWESRMKNSVAWYQQKAGQPPKLLIYWASTRESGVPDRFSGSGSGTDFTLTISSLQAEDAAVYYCQQWHRLPLSFGGGTKVEIK	1.47, 1.61, 1.69	1.59	6 of 9

As a blank, each scFv also met three strains without target: over library AAYL50, 18% of these pairings were detected, typically at 4.19 and seldom below 2.99. Also given: how often the same scFv was detected with the empty control strains.